These results are taken from ChEMBL document CHEMBL4680272 (Eur J Med Chem, 2020).

The nature of this data set: in vivo. Particulars: Sprague-Dawley, rat, po, 10 mg/kg.

`CCC(CC)O[C@@H]1C=C(C(=O)O)C[C@H](N)[C@H]1NC(C)=O` [OSELTAMIVIR CARBOXYLATE] yielded a half-life at 24 h of 10.6 h.
